# From ChEMBL document CHEMBL5346864, “Identification of L. infantum trypanothione synthetase inhibitors with leishmanicidal activity from a (non-biased) in-house chemical library” (Eur J Med Chem, 2022)
# Experiments:
# Leishmania infantum [1] = experiment: (§1) Inhibition of N-terminal His6-tagged recombinant Leishmania infantum promastigotes (MCAN/ES/89/IPZ229/1/89) TryS expressed in Escherichia coli BL21(DE3) Rossetta assessed as apparent Vmax of GspdSH using GspdSH, GSH and ATP as substrate at 4.8 uM measured after 30 mins by BIOMOL Green reagent based assay
# Leishmania infantum [2] = experiment: as §1, with “6.9” for “4.8”
# Leishmania infantum [3] = experiment: as §1, with “5.8” for “4.8”
# Leishmania infantum [4] = experiment: as §1, with “8.3” for “4.8”
# Leishmania infantum [5] = experiment: as §1, with “4” for “4.8”
structure (smiles),measurement,setting,value
CCCCCCCCCCCCCCOc1ccc(C[N+](C)(C)C2CCCC2)cc1OC,Vmax(app),Leishmania infantum [1],0.009 µM/s
same,Vmax(app),Leishmania infantum [2],0.004 µM/s
same,Vmax(app),Leishmania infantum [3],0.006 µM/s
same,Vmax(app),Leishmania infantum [4],0.004 µM/s
same,Vmax(app),Leishmania infantum [5],0.012 µM/s
